Patent US12365850B2, “Water-miscible functional fluid, undiluted stock of water-miscible functional fluid, sterilizer for water-miscible functional fluid, and method of sterilizing water-miscible function fluid” (priority 2020, dated 2025)

Test: pH drop suppression test of water-miscible cutting fluid (circulation and blue LED irradiation)
Assay type: physicochemical

OCCN(CCO)CCO
pH change rate (%) (100%×(pH at preparation−pH after continuing use)/(pH at preparation), riboflavin cutting fluid with the named antioxidant): 9.3%
Evaluation of pH drop supression (class by pH change rate, riboflavin cutting fluid with the named antioxidant): A (pH change rate of 15% or lower)
pH change (riboflavin cutting fluid containing the named antioxidant, one month, Table 3 (same values as Table 2)): 0.8

Only a part of the results on these compounds is given; other tests are left out.
